For 1 substance, log kill results are on record in US20080241276A1, “Portable bio-chemical decontaminant system and method of using the same” (published 2008).

What all share (experiment): Antimicrobial efficacy (FIG. 7), one minute
What all share (details): lapse time one minute; below detection limit

The test system of test [1] is K. terrigena.
For test [2], the system named is B. subtilis.
In test [3] the test system is MS2.

For the substance chlorine dioxide, the log kill result was “greater than 6 log” in test [1], “greater than 6 log” in test [2] and “greater than 5 log” in test [3].
